We go through one compound from patent US20070082856A1, “Combination therapy comprising the use of et-743 and doxorubicin for treating cancer” (Pharma Mar, S.A.U., priority 2003, published 2007).

This data set in a line: Phase I clinical trial (Example 2): safety profile and DLT of ET-743 days 1 and 8 with doxorubicin day 1. To be noted: ET-743 3-hr infusion days 1 and 8 with Doxo 50 mg/m^2 day 1, every 21 days.

As for `COc1cc2c(cc1O)CCN[C@]21CS[C@@H]2c3c(OC(C)=O)c(C)c4c(c3[C@H](COC1=O)N1[C@@H]2[C@H]2c3c(cc(C)c(OC)c3O)C[C@@H]([C@@H]1O)N2C)OCO4` [ET-743, ecteinascidin 743], the “MTD, ET-743 part” value stood at 700 μg/m^2.
